According to PubChem BioAssay AID1049 (The Scripps Research Institute Molecular Screening Center, 2008):
Only a part is listed here, and it is no random draw. Some results for these compounds are left out of this collection, so the calls shown say nothing about other tests. Activity calls are given as the source filed them. No stated cut-off is given here; in the data, active means TR-FRET ratio above about 2000; inactive means the rest.

Experiment: detection-format interference in TR-FRET ratio – biochemical, artefact control for PPARgamma SRC-2 agonist project, primary screen (AID 1049)
Details: TR-FRET artefact counter-screen; at 8 µM; hits give high values

With `O=C(OC1CN2CCC1CC2)C(CO)(c1ccccc1)c1ccccc1` (centres undefined) as the compound, how does the TR-FRET ratio read?
The TR-FRET ratio was inactive: 1510.

For `CN(C)c1cccc(C(=O)NCC2(N(C)C)CCCCC2)c1`, which TR-FRET ratio is on record?
Its TR-FRET ratio is inactive: 1640.

Which TR-FRET ratio does the source give for `COc1cccc(C(=O)NCC2(N3CCCCC3)CCCCC2)c1` here?
The TR-FRET ratio was inactive: 1460.

With `CN(C)C1CCCC1OC(=O)C(O)(c1ccccc1)c1ccccc1` (centres undefined) as the compound, how does the TR-FRET ratio read?
The TR-FRET ratio was inactive: 1550.

Which TR-FRET ratio does the source give for `Cc1ccccc1C(=O)NCC1(N2CCCCC2)CCCCC1` here?
Its TR-FRET ratio is inactive: 1660.

Which TR-FRET ratio does the source give for `CCN1CCCC(OC(=O)C2(O)c3ccccc3C=Cc3ccccc32)C1` (centres undefined) here?
The TR-FRET ratio was inactive: 1510.

Which TR-FRET ratio does the source give for `C=CCN1CCN(CCOC(=O)C(O)(c2ccccc2)c2ccccc2)CC1` here?
Its TR-FRET ratio is inactive: 1600.

With `O=C(NCC1(N2CCCCC2)CCCCC1)c1cc([N+](=O)[O-])ccc1Cl` as the compound, how does the TR-FRET ratio read?
The TR-FRET ratio was inactive: 1360.

For `CC(C)N1C(=O)CC2(CCN(CCOC(=O)C(O)(c3ccccc3)c3ccccc3)CC2)C1=O`, which TR-FRET ratio is on record?
The TR-FRET ratio was inactive: 1660.
